Results taken from ChEMBL document CHEMBL3217731, “Pharmacokinetics of Agelastatin A in the central nervous system” (Medchemcomm, 2012).

Assay: Ratio of AUC in C57BL/6J mouse CSF to AUC in C57BL/6J mouse serum
Type: ADME

CN1C(=O)N[C@H]2[C@@H]3NC(=O)c4ccc(Br)n4[C@@H]3C[C@]21O [AGELASTATIN A]
Ratio AUC: 10.09%
